This is an account of results in PubChem BioAssay AID576 (NMMLSC, 2007).

The list shows a part of the results, in another mix than the full data. Activity calls are given as the source filed them.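 How the source made its calls: active means fluorescence ratio above 2.44, which is 1 plus 3 SD of all ratios; inconclusive means signal too bright to measure linearly, ratio around 10 or more; inactive means fluorescence ratio below 2.44.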

This experiment in a line: intrinsic compound fluorescence with Jurkat cells – cell-based, flow cytometry, artefact control for VLA-4 allosteric ligand project, primary screen (AID 576).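 Further: green fluorescence of cells measured with 488 nm excitation and 530 nm emission; tested at 10 µM compound in the well.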 The following applies: compound autofluorescence, active compounds read high, 1 = vehicle-only cell background.
For the molecule `N#CC1(Nc2ccccc2)CCN(CCc2ccccc2)CC1`, the fluorescence ratio is inactive: 1.03.

As to `Fc1ccccc1NC1CCN(Cc2ccccc2)CC1`, the fluorescence ratio is inactive: 0.92.
